This passage reports AC50 results from ChEMBL document CHEMBL5291721, “A preclinical secondary pharmacology resource illuminates target-adverse drug reaction associations of marketed drugs” (Nat Commun, 2023).

Amino acid sequences for entries named in this document (tags omitted). A change or cut given only in a name is not applied to a line headed by its entry.
UniProt P21397, whole entry: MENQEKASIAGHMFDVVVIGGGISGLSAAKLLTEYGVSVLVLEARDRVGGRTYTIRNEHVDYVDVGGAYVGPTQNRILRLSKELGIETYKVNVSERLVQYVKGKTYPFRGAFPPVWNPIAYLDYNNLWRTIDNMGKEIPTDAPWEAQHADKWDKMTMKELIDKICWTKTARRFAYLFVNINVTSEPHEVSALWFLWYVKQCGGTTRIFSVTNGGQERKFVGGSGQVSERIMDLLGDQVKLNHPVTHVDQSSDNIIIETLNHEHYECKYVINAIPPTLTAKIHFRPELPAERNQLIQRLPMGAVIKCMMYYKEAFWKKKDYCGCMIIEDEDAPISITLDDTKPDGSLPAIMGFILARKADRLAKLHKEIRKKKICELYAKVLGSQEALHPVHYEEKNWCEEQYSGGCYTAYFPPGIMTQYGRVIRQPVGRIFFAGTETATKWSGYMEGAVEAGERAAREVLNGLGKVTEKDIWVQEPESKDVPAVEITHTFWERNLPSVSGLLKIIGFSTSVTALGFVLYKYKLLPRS
UniProt P35462, whole entry: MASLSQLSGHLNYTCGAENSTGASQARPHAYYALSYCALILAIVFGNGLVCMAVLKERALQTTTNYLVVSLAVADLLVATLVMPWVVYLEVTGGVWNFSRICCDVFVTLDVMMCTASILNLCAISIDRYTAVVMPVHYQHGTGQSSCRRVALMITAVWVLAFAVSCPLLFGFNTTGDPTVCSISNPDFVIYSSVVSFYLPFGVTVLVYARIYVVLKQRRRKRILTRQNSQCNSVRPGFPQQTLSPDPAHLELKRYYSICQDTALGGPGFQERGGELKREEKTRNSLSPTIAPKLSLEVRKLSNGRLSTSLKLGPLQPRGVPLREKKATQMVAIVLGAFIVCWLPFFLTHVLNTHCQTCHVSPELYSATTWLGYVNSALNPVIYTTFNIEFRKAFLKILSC
UniProt P41143, whole entry: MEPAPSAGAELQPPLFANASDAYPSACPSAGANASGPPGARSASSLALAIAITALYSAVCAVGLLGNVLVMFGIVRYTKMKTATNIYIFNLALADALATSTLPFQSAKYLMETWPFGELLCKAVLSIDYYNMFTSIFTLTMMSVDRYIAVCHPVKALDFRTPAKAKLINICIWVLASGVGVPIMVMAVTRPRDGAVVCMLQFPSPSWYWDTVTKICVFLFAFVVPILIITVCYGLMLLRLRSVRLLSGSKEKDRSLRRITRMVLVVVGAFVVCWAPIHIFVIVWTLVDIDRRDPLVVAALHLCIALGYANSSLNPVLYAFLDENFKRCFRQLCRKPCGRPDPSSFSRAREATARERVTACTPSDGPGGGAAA
UniProt P08913, whole entry: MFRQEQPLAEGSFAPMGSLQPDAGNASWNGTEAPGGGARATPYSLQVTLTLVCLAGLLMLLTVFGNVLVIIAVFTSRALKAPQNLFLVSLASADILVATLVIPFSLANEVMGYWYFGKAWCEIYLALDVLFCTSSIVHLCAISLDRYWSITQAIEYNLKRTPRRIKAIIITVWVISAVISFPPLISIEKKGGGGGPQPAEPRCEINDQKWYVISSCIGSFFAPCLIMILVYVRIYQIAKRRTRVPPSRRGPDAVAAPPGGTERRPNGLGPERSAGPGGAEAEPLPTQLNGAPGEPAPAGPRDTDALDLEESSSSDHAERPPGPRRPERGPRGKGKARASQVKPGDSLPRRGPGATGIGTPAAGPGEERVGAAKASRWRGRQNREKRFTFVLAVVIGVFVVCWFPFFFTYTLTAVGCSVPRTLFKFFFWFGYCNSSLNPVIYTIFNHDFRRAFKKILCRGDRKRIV
UniProt Q12809: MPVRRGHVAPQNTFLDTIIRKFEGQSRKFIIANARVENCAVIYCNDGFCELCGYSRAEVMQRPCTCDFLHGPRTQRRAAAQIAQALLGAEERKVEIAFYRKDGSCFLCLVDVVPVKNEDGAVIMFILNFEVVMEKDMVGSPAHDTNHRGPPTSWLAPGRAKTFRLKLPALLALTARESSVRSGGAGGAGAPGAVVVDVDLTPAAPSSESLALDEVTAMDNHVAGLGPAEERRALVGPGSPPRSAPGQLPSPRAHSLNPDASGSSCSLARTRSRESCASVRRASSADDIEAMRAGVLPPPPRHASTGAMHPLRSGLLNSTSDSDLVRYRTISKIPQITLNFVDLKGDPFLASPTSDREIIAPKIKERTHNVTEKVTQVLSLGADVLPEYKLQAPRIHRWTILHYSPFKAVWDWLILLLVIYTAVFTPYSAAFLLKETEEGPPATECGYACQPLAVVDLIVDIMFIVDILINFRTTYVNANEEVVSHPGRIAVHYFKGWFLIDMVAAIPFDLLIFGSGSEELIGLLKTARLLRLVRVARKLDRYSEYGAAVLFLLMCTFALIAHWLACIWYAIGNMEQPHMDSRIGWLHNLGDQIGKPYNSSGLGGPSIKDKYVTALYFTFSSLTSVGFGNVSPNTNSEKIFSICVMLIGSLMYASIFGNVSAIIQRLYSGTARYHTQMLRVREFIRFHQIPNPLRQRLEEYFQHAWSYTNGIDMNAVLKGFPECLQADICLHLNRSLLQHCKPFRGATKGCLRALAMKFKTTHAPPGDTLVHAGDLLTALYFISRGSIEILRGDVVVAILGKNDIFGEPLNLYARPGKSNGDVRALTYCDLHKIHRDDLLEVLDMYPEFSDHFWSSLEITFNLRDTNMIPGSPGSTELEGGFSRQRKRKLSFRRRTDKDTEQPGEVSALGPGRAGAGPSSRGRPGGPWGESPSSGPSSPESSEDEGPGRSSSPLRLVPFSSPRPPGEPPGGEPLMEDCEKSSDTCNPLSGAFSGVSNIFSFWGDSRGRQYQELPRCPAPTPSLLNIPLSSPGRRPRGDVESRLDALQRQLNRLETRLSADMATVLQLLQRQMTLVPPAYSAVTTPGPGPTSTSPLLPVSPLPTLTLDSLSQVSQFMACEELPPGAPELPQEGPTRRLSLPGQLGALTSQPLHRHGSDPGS
UniProt P18089, whole entry: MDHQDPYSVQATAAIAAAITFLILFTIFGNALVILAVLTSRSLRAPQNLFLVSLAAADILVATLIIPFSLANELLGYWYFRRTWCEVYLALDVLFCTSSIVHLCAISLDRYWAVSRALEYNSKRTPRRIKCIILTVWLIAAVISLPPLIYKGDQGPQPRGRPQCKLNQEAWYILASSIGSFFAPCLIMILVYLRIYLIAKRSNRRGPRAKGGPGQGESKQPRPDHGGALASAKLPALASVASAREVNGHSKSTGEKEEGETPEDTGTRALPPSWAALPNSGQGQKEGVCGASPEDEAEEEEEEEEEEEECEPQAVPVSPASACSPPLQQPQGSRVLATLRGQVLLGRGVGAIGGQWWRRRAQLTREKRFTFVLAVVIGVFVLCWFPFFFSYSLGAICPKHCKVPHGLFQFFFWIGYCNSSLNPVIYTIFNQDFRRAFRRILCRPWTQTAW
UniProt P18825, whole entry: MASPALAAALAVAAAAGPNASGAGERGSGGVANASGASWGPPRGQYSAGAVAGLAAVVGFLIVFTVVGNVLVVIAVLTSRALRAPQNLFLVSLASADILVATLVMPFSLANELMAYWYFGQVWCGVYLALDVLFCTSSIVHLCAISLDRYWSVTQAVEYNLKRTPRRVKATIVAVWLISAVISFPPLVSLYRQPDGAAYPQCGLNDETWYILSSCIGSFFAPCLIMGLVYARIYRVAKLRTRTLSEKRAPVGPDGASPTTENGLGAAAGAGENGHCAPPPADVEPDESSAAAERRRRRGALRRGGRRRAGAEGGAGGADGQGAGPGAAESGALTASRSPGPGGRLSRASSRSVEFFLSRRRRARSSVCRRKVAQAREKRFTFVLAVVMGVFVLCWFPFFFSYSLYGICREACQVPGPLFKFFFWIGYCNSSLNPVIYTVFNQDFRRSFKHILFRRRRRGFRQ
UniProt P35372, whole entry: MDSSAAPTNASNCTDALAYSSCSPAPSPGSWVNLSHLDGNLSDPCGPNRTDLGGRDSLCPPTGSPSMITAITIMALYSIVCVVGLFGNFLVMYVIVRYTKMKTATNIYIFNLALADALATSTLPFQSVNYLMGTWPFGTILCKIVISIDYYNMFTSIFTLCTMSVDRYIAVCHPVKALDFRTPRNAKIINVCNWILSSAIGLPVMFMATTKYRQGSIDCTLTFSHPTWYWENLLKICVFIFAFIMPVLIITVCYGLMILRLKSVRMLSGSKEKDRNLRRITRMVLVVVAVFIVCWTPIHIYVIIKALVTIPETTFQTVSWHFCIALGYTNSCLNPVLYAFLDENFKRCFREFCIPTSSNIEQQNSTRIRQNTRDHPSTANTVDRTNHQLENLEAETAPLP
UniProt P11229: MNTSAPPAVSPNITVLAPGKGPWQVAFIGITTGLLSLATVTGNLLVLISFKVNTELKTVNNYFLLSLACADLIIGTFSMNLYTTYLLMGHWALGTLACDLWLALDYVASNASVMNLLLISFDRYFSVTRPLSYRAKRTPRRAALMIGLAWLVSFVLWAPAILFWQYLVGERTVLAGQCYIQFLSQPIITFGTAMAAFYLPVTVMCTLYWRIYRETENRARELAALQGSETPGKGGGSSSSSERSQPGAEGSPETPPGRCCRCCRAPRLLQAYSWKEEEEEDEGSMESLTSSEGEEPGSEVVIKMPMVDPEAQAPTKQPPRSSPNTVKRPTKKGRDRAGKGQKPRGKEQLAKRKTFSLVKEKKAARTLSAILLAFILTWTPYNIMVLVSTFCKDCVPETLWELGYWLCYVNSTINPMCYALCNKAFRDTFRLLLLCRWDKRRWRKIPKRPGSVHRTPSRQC
UniProt P08172, whole entry: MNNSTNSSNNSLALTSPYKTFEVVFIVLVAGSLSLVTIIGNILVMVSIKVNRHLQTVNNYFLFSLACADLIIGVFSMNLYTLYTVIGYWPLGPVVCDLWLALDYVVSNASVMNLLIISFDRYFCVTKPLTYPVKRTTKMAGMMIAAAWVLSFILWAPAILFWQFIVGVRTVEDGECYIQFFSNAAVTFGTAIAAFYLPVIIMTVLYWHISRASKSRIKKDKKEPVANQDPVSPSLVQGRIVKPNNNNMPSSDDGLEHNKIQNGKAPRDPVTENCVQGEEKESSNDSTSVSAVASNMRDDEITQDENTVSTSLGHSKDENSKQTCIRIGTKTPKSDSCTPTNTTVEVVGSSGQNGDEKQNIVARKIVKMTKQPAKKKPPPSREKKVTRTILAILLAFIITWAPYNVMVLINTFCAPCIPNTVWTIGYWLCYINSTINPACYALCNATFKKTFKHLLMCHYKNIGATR
UniProt Q01827, whole entry: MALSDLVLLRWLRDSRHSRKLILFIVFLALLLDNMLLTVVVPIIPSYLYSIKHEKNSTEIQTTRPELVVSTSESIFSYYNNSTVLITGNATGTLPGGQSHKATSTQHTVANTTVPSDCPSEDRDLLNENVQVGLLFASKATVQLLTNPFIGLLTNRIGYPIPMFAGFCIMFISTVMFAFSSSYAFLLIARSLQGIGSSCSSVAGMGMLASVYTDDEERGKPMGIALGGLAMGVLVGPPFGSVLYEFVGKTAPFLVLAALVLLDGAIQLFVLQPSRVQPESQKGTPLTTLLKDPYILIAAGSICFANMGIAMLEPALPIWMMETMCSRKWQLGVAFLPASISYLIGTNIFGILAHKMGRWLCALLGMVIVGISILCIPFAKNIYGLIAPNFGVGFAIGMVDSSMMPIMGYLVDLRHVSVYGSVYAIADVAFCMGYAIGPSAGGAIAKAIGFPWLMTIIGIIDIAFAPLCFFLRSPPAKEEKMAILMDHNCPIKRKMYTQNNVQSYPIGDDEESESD
UniProt P21728, whole entry: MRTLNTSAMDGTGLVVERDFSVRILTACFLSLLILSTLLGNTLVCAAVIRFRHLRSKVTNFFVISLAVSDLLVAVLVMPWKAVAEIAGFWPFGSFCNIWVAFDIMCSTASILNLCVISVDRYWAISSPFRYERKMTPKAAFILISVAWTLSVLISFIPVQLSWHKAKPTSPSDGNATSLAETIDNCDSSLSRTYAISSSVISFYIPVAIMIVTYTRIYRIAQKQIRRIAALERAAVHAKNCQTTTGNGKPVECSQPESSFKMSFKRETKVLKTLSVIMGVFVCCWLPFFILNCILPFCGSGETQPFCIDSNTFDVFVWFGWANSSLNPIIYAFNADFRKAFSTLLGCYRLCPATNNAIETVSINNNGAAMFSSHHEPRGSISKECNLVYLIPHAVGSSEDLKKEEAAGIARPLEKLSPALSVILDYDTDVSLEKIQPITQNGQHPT
UniProt P08908, whole entry: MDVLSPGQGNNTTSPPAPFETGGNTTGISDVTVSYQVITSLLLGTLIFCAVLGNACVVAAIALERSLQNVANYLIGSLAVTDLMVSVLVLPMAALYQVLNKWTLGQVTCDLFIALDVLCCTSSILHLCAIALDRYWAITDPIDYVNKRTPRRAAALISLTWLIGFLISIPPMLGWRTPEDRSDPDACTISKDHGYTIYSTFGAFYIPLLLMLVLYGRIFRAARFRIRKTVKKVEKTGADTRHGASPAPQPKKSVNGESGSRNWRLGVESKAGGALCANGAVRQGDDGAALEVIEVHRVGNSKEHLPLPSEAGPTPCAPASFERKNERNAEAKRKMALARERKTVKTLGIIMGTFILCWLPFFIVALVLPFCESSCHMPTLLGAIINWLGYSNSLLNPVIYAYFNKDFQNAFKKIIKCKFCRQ

Assay [1] has as its target T1, Amine oxidase [flavin-containing] A (Homo sapiens, UniProt P21397). It is filed as functional.
In assay [2] the target is T1, Amine oxidase [flavin-containing] A. The class given is functional. This is another data set of the same source.
Assay [3] deals with D(3) dopamine receptor (Homo sapiens, UniProt P35462).
Assay [4] addresses Delta-type opioid receptor (Homo sapiens, UniProt P41143).
In assay [5] the target is Kappa-type opioid receptor (Homo sapiens, UniProt P41145).
The target in assay [6] is T2, Alpha-2A adrenergic receptor (Homo sapiens, UniProt P08913). The class given is functional, cell-based.
Assay [7] concerns the target T2, Alpha-2A adrenergic receptor. The class given is functional, cell-based. This is another data set of the same source.
The target is the same in assay [8].
Assay [9] has the same target. This is another data set of the same source.
Assay [10] has the same target. The source holds these as a separate data set.
The target of assay [11] is Voltage-gated inwardly rectifying potassium channel KCNH2 (Homo sapiens, UniProt Q12809).
Assay [12] deals with Alpha-2B adrenergic receptor (Homo sapiens, UniProt P18089).
The target in assay [13] is 5-hydroxytryptamine receptor 2C (Homo sapiens, UniProt P28335).
Assay [14] addresses Alpha-2C adrenergic receptor (Homo sapiens, UniProt P18825). It is filed as functional.
For assay [15], the target named is T3, Mu-type opioid receptor (Homo sapiens, UniProt P35372). In words: biochemical. It is filed as functional.
The target in assay [16] is T3, Mu-type opioid receptor.
Assay [17] deals with Glutamate receptor ionotropic, NMDA 1 (Rattus norvegicus, UniProt P35439).
In assay [18] the target is Sodium-dependent dopamine transporter (Homo sapiens, UniProt Q01959).
In assay [19] the target is Sodium-dependent noradrenaline transporter (Homo sapiens, UniProt P23975).
The target of assay [20] is Muscarinic acetylcholine receptor M1 (Homo sapiens, UniProt P11229). The class given is functional, cell-based.
The target of assay [21] is T4, Muscarinic acetylcholine receptor M2 (Homo sapiens, UniProt P08172). The class given is functional, cell-based.
The target in assay [22] is T4, Muscarinic acetylcholine receptor M2. The class given is functional, cell-based. This is another data set of the same source.
The target is the same in assay [23].
In assay [24] the target is Synaptic vesicular amine transporter (Rattus norvegicus, UniProt Q01827). It is filed as functional.
The target of assay [25] is T4, Muscarinic acetylcholine receptor M2. This is another data set of the same source.
Assay [26] has as its target 3',5'-cyclic-AMP phosphodiesterase 4D (Homo sapiens, UniProt Q08499). The class given is functional.
Assay [27] has as its target Beta-1 adrenergic receptor (Homo sapiens, UniProt P08588). It is filed as functional.
For assay [28], the target named is D(1A) dopamine receptor (Homo sapiens, UniProt P21728). It is filed as functional, cell-based.
For assay [29], the target named is T5, 5-hydroxytryptamine receptor 1A (Homo sapiens, UniProt P08908). The class given is functional, cell-based.
Assay [30] deals with T5, 5-hydroxytryptamine receptor 1A. It is filed as functional, cell-based. This is another data set of the same source.
Note: assay procedure not described here.

Consider `NNCCc1ccccc1` [PHENELZINE], for which the AC50 in assay [1] is 1640 nM; in [2], 170 nM.

Compound `CCN1CCCC1CNC(=O)c1cc(S(N)(=O)=O)ccc1OC` (centres undefined) [SULPIRIDE] had an AC50 in assay [3] of 110 nM.

In the case of `C=C1CC[C@@]2(O)[C@H]3Cc4ccc(O)c5c4[C@@]2(CCN3CC2CC2)[C@H]1O5`, the AC50 was 82 nM in assay [4] and 18 nM in assay [5].

For the compound `O=C1Cc2cc(CCN3CCN(c4nsc5ccccc45)CC3)c(Cl)cc2N1` [ZIPRASIDONE], the half-maximal activity concentration (AC50) in assay [6] was over 10 µM; in [7], over 10 µM; in assay [8] it was 895 nM; in [9] it was 3.15 µM; in assay [10], 900 nM; in [11], 1230 nM.

As for `CCN(CC)C(=O)N[C@H]1C[C@@H]2c3cccc4[nH]cc(c34)C[C@H]2N(C)C1` [TERGURIDE], in assay [12], half-maximal activity (AC50) was put at 5.5 nM.

In turn, `CN1CCc2cccc3c2[C@H]1Cc1ccc(O)c(O)c1-3` [APOMORPHINE] gave an AC50 in assay [12] of 2700 nM.

Turning to `COc1ccc2cccc(CCNC(C)=O)c2c1` [AGOMELATINE], the AC50 in assay [13] was 5.2 µM.

As for `COc1ccccc1N1CCN(CCCNc2cc(=O)n(C)c(=O)n2C)CC1`, the AC50 in assay [12] was 9800 nM; in [14] it was 2700 nM.

For the compound `CN1CC[C@]23CCCC[C@H]2[C@H]1Cc1ccc(O)cc13` [LEVORPHANOL], the AC50 in assay [15] came out at 3.3 µM; in [16], 6.4 µM.

Regarding `CN(C)CCCN1c2ccccc2CCc2ccccc21` [IMIPRAMINE], the concentration at half-maximal activity (AC50) is over 10 µM in [17], over 10 µM in assay [18] and 83 nM in [19].

In assay [20], `C[N+]1(C)CCC(OC(=O)C(O)(c2ccccc2)C2CCCC2)C1` (centres undefined) [GLYCOPYRRONIUM BROMIDE] showed an AC50 of over 30 µM.

In the case of `CCCCCCOc1nsnc1C1=CCCN(C)C1` [XANOMELINE], the AC50 in assay [21] is over 10 µM; in assay [22], 580 nM; in [23], 111 nM.

In the case of `COC(=O)[C@H]1[C@H]2C[C@@H]3c4[nH]c5cc(OC)ccc5c4CCN3C[C@H]2C[C@@H](OC(=O)c2cc(OC)c(OC)c(OC)c2)[C@@H]1OC` [RESERPINE], the activity in assay [24] was half-maximal at 1 nM (AC50).

For `CCN(CC)CCNC(=O)c1cc(Cl)c(N)cc1OC` [METOCLOPRAMIDE], the AC50 is over 30 µM in assay [21], over 30000 nM in assay [22] and over 10 µM in assay [25].

In turn, `CN1CC(=O)N2[C@H](c3ccc4c(c3)OCO4)c3[nH]c4ccccc4c3C[C@@H]2C1=O` showed an AC50 in assay [26] of over 30 µM.

As for `CNC[C@H](O)c1ccc(O)c(O)c1` [EPINEPHRINE], the AC50 in assay [27] is 970 nM; in assay [28], 32 nM; in assay [29], over 30 µM; in assay [30], over 30 µM.
